Where a chain is given by its changes, count along the chain named.
Legend:
GIPR L261H = target: T1, GIPR L261H (Homo sapiens, UniProt P48546, L261H); assay: cAMP accumulation; type: cell-based
T1 construct: host or cells: HEK293

GIPR V99I = target: T2, GIPR V99I (Homo sapiens, UniProt P48546, V99I); conditions: GIPR V99I (ECD), mean, n = 5, duplicate
T2 sequence (P48546 22-466 V99I): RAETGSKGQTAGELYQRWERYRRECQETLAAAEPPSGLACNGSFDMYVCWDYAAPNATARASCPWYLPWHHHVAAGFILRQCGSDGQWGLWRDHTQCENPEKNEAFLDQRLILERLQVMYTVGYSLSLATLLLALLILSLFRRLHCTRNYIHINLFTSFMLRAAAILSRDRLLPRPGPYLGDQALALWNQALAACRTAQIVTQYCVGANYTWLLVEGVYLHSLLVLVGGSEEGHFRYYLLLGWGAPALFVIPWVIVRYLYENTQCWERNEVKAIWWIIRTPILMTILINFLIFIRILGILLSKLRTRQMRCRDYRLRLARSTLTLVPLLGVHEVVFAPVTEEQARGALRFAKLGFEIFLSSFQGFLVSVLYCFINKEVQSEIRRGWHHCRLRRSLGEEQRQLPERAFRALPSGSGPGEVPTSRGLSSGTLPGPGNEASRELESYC

GIPR A294V [1] = target: T3, GIPR A294V (Homo sapiens, UniProt P48546, A294V); conditions: GIPR A294V (ECL2), mean, n = 3, duplicate
T3 sequence (P48546 22-466 A294V): T2 sequence (P48546 22-466 V99I) with I78V, A273V

GIPR E418K = target: T4, GIPR E418K (Homo sapiens, UniProt P48546, E418K); conditions: HEK293A, 1 µM GIP minus vehicle, n = 4, P = 0.0142
T4 sequence (P48546 22-466 E418K): T2 sequence (P48546 22-466 V99I) with I78V, E397K

GIPR T116R = target: T5, GIPR T116R (Homo sapiens, UniProt P48546, T116R); assay: cAMP accumulation; type: cell-based; design: host or cells: HEK293
T5 sequence (P48546 22-466 T116R): T2 sequence (P48546 22-466 V99I) with I78V, T95R

GIPR A294V [2] = target: T3, GIPR A294V; assay: cAMP accumulation; type: cell-based; design: host or cells: HEK293
GIPR K397N = target: T6, GIPR K397N (Homo sapiens, UniProt P48546, K397N); assay: cAMP accumulation; type: cell-based; design: host or cells: HEK293
T6 sequence (P48546 22-466 K397N): T2 sequence (P48546 22-466 V99I) with I78V, K376N

[3] = HEK293, GIP(1–42) 1 pM–100 nM, 30 min 37 °C, mean of n = 3
[4] = HEK293, Hill slope 1.0, mean of n = 3

**Q.** With “glucose-dependent insulinotropic polypeptide [GIP]” as the substance, how does the “cAMP (Emax)” value (GIPR L261H; HEK293, GIP(1–42) 1 pM–100 nM, 30 min 37 °C, mean of n = 4) read?
**A.** 113 % of WT GIPR activity

**Q.** What about the “logEC50 (cAMP)” value (GIPR L261H; HEK293, Hill slope 1.0, mean of n = 4) of the same substance?
**A.** -9.7

**Q.** And the “logEC50 (Arrestin)” value (GIPR V99I; Hill slope 1.0)?
**A.** -8.9

**Q.** What about the “Arrestin (Emax)” value (GIPR V99I; normalized to WT GIPR) of the same substance?
**A.** 62

**Q.** What about the “logEC50 (Arrestin)” value (GIPR A294V [1]; Hill slope 1.0) of the same substance?
**A.** -9.0

**Q.** What about the “Arrestin (Emax)” value (GIPR A294V [1]; normalized to WT GIPR) of the same substance?
**A.** 63

**Q.** And the “Mean of ΔBRET” value (GIPR E418K)?
**A.** 0.0797

**Q.** What about the “cAMP signalling up to 100 nM GIP” value (GIPR T116R) of the same substance?
**A.** unable to signal

**Q.** And the “cAMP (Emax)” value (GIPR A294V [2]; [3])?
**A.** 87 % of WT GIPR activity

**Q.** And the “logEC50 (cAMP)” value (GIPR A294V [2]; [4])?
**A.** -10.6

**Q.** What about the “cAMP (Emax)” value (GIPR K397N; [3]) of the same substance?
**A.** 68 % of WT GIPR activity

**Q.** What about the “logEC50 (cAMP)” value (GIPR K397N; [4]) of the same substance?
**A.** -10.7

Source: article PMC11272584 (Nature Metabolism, 2024)
